## Reported melting point values for industrial, environmental and drug-like chemicals

Source: data files of OPERA 2.9 (Mansouri et al.), github.com/kmansouri/OPERA.

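The OPERA project collected these measurements from public sources as training and test data for property models. A listed value is a point estimate from one report or more. Conditions of the individual experiments are not part of the data. A value may pool stereoisomers or salt forms, and the file does not say which form was measured. Some entries may be limits or estimates that an upstream database listed as plain numbers.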

Melting points are in °C.

Listed for Oc1cccc(-c2nnco2)c1 [3-(1,3,4-oxadiazol-2-yl)phenol]: mp 212 °C. Listed for COc1ccccc1C(=N)NO [N-Hydroxy-2-methoxybenzene-1-carboximidamide]: mp 106 °C. Nc1cccc(N2C(=O)CNC2=O)c1 [3-(3-Aminophenyl)imidazolidine-2,4-dione] has mp 157 °C. For Cc1ncc[nH]c1=O [2-Hydroxy-3-methylpyrazine] the data give mp 152.5 °C. COc1cc(OC)c(C(C)=O)cc1Cl [1-(5-Chloro-2,4-dimethoxyphenyl)ethan-1-one] is reported with mp 135 °C. The entry for CN(C)S(=O)(=O)c1ccc(C(=O)CBr)cc1 [4-(Bromoacetyl)-N,N-dimethylbenzene-1-sulfonamide] lists mp 91 °C. O=C(Nc1cccc([N+](=O)[O-])c1)OCC(F)(F)F [2,2,2-Trifluoroethyl (3-nitrophenyl)carbamate] is reported with mp 99 °C. CN(C)C(=O)c1cc(N)ccc1Cl [5-Amino-2-chloro-N,N-dimethylbenzamide] is reported with mp 159 °C.

Listed for Cc1nn(-c2ccc(F)cc2)c(C)c1C=O [1-(4-fluorophenyl)-3,5-dimethyl-1H-pyrazole-4-carbaldehyde]: mp 129 °C. The entry for CCCc1nnc(N)s1 [5-Propyl-1,3,4-thiadiazol-2-amine] lists mp 200 °C. C=CCc1cc(OCC)ccc1O [2-allyl-4-ethoxyphenol] has mp 136 °C. CCOC(=O)n1c(-c2cscn2)nc2ccccc21 [Ethyl 2-(1,3-thiazol-4-yl)-1H-benzimidazole-1-carboxylate] is reported with mp 84.5 °C. The entry for Nc1nn2cc(-c3ccccc3)nc2s1 [6-Phenylimidazo[2,1-b][1,3,4]thiadiazol-2-amine] lists mp 184 °C. NC(=O)c1cc[n+](CC2=C(C(=O)[O-])N3C(=O)[C@@H](NC(=O)Cc4cccs4)[C@H]3SC2)cc1 [Cefalonium] is reported with mp 148 °C. The entry for Cc1cccc(O)c1Cl [2-Chloro-m-cresol] lists mp 56 °C. Listed for O=Cc1cc(Br)ccc1OCC(=O)O [2-(4-bromo-2-formylphenoxy)acetic acid]: mp 171 °C.

Listed for Cn1nc2c(c1N)CCC2 [2-Methyl-2,4,5,6-tetrahydrocyclopenta[c]pyrazol-3-amine]: mp 135 °C. For CC1(c2ccncc2)NC(=O)NC1=O (configuration not stated) [5-Methyl-5-(pyridin-4-yl)imidazolidine-2,4-dione] the data give mp 232 °C. CN(C)C(=O)CN1CCNCC1 [N,N-dimethyl-2-piperazin-1-yl-acetamide] is reported with mp 36 °C. Clc1ccc(Oc2ccc(Cl)cc2Cl)cc1 [2,4,4'-trichlorodiphenyl ether] has mp 50 °C. Cc1nc(=S)c2ccccc2[nH]1 [2-methylquinazoline-4-thiol] is reported with mp 212 °C. The entry for O=C(O)CCC(CC(=O)O)(C(=O)O)P(=O)(O)O (configuration not stated) [2-Phosphono-1,2,4-butanetricarboxylic acid] lists mp 9.35 °C. Listed for O=Cc1cn[nH]c1-c1ccc(Cl)cc1 [3-(4-Chlorophenyl)-1H-pyrazole-4-carbaldehyde]: mp 140 °C. Listed for CC1=C(CCC(=O)O)c2cc3[nH]c(cc4nc(cc5[nH]c(cc1n2)c(C)c5C(C)O)C(C)=C4C(C)O)c(C)c3CCC(=O)O (configuration not stated) [Hematoporphyrin]: mp 172 °C.

For CCN(CC)S(=O)(=O)c1ccc(C(C)=O)cc1 [4-acetyl-N,N-diethylbenzenesulfonamide] the data give mp 82 °C. For CC(CC(=O)O)n1nnc2ccccc21 (configuration not stated) [3-(1H-Benzotriazol-1-yl)butanoic acid] the data give mp 150 °C. For CC(=O)OCC(=O)[C@@]12OC(C)(C)O[C@@H]1C[C@H]1[C@@H]3CCC4=CC(=O)C=C[C@]4(C)[C@@]34O[C@H]4C[C@@]12C the data give mp 224.7 °C. Listed for O=C(O)CCOc1cccc(Cl)c1 [3-(3-Chlorophenoxy)propionic acid]: mp 86 °C. The entry for CC(C)COC(=O)n1c(-c2cscn2)nc2ccccc21 lists mp 72.5 °C. Listed for NS(=O)(=O)c1cc(C(=O)O)ccc1Br [4-bromo-3-sulfamoylbenzoic acid]: mp 276 °C. Listed for Cc1cnc(Br)c(N)c1 [2-Bromo-5-methylpyridin-3-amine]: mp 104.5 °C. The entry for CCOc1cc(C=O)ccc1OCc1c(Cl)cccc1Cl [4-[(2,6-dichlorobenzyl)oxy]-3-ethoxybenzaldehyde] lists mp 116 °C.

CCOC(=O)c1c(C)[nH]c(C(C)=O)c1C is reported with mp 116 °C. CC(C)(C)OC(=O)N1CCN(C(N)=O)CC1 [tert-Butyl 4-carbamoylpiperazine-1-carboxylate] is reported with mp 176 °C. Cn1c(=O)[nH]c2ncn(C)c2c1=O [1,7-Dimethylxanthine] is reported with mp 351.5 °C. COc1ccc(-c2[nH]c(=N)sc2C)cc1 [4-(4-Methoxyphenyl)-5-methyl-1,3-thiazol-2(3H)-iminato] has mp 121 °C. Listed for O=C(O)CCn1c(=O)oc2cc(Cl)ccc21 [3-(6-chloro-2-oxo-1,3-benzoxazol-3(2H)-yl)propanoic acid]: mp 161 °C. O=C(O)Cn1ccc(O)nc1=O [(4-Hydroxy-2-oxopyrimidin-1(2H)-yl)acetic acid] is reported with mp 280 °C. Cc1cc(N)[nH]c(=O)c1 [6-Amino-4-methylpyridin-2(1H)-one] is reported with mp 257 °C. For Nc1cc(-c2ccc([N+](=O)[O-])cc2)no1 [3-(4-Nitrophenyl)-1,2-oxazol-5-amine] the data give mp 196 °C.

CCOC(=O)c1[nH]c2c(c1C)C(=O)CC(C)(C)C2 has mp 161 °C. The entry for O=C(O)C1CC2CCCC(C1)C2=O (configuration not stated) [9-Oxo-bicyclo[3.3.1]nonane-3-carboxylic acid] lists mp 130 °C. CCOc1cc(C#N)cc(Br)c1O [3-bromo-5-ethoxy-4-hydroxybenzonitrile] has mp 141 °C. CCC(NC(N)=O)C(=O)O (configuration not stated) [2-(carbamoylamino)butanoic Acid] is reported with mp 175 °C. O=C(O)Cn1c(=O)cnc2ccccc21 [(2-oxoquinoxalin-1(2H)-yl)acetic acid] is reported with mp 197 °C. COc1ccc(S(N)(=O)=O)cc1N [Benzenesulfonamide, 3-amino-4-methoxy-] is reported with mp 146 °C. The entry for CN(C)c1ccc(C(N)=S)cc1 [Benzenecarbothioamide, 4-(dimethylamino)-] lists mp 118 °C. The entry for NN1C(=O)NC2(CCCCC2)C1=O [3-Amino-1,3-diazaspiro[4.5]decane-2,4-dione] lists mp 165 °C.

Brc1ccc(OCC2CO2)cc1 (configuration not stated) [(p-Bromophenoxy)methyl)oxirane] has mp 50 °C. CNc1ccc(C=O)cc1[N+](=O)[O-] [4-(methylamino)-3-nitrobenzaldehyde] is reported with mp 119 °C. Listed for Cc1c(C(=O)NN)oc2ccccc12 [3-methyl-1-benzofuran-2-carbohydrazide]: mp 140 °C. COC(=O)C(=O)CC(=O)c1ccc(F)cc1 [methyl 4-(4-fluorophenyl)-2,4-dioxobutanoate] is reported with mp 130 °C. Listed for CC1N=C(O)CN=C1O (configuration not stated) [Piperazine-2,5-dione, 3-methyl-]: mp 247 °C.

The last 7 entries again:

{"smiles": "CN(C)c1ccc(C(N)=S)cc1", "name": "Benzenecarbothioamide, 4-(dimethylamino)-", "mp (°C)": "118"}
{"smiles": "NN1C(=O)NC2(CCCCC2)C1=O", "name": "3-Amino-1,3-diazaspiro[4.5]decane-2,4-dione", "mp (°C)": "165"}
{"smiles": "Brc1ccc(OCC2CO2)cc1", "stereo": "configuration not stated", "name": "(p-Bromophenoxy)methyl)oxirane", "mp (°C)": "50"}
{"smiles": "CNc1ccc(C=O)cc1[N+](=O)[O-]", "name": "4-(methylamino)-3-nitrobenzaldehyde", "mp (°C)": "119"}
{"smiles": "Cc1c(C(=O)NN)oc2ccccc12", "name": "3-methyl-1-benzofuran-2-carbohydrazide", "mp (°C)": "140"}
{"smiles": "COC(=O)C(=O)CC(=O)c1ccc(F)cc1", "name": "methyl 4-(4-fluorophenyl)-2,4-dioxobutanoate", "mp (°C)": "130"}
{"smiles": "CC1N=C(O)CN=C1O", "stereo": "configuration not stated", "name": "Piperazine-2,5-dione, 3-methyl-", "mp (°C)": "247"}